{
  "source": "patent US20220183937A1",
  "about": "“METHOD FOR IMPROVING THE PERFORMANCE OF A FRAGRANCE OR A FRAGRANCE MIXTURE” (SYMRISE AG, priority 2019, published 2022)",
  "key": {"[1]": {"assay": "LogP of fragrance raw materials", "details": "Example 2, fragrances for thermo boost performance; head range 0.00 a 3.00"}},
  "data": [
    {"smiles": "CCCCCC(=O)OCC", "note": "[ETHYL CAPROATE]", "values": [
      {"measurement": "logP", "setting": "physchem", "result": 2.83}
    ]},
    {"smiles": "CCCC1CCCC(=O)O1", "note": "(centres unmarked) [OCTALACTONE DELTA]", "values": [
      {"measurement": "logP", "setting": "[1]", "result": 1.59}
    ]}
  ]
}
